# How the values were obtained:
# The chains behind the UniProt entries cited, without tags or fusion partners.
# UniProt P03372, whole entry: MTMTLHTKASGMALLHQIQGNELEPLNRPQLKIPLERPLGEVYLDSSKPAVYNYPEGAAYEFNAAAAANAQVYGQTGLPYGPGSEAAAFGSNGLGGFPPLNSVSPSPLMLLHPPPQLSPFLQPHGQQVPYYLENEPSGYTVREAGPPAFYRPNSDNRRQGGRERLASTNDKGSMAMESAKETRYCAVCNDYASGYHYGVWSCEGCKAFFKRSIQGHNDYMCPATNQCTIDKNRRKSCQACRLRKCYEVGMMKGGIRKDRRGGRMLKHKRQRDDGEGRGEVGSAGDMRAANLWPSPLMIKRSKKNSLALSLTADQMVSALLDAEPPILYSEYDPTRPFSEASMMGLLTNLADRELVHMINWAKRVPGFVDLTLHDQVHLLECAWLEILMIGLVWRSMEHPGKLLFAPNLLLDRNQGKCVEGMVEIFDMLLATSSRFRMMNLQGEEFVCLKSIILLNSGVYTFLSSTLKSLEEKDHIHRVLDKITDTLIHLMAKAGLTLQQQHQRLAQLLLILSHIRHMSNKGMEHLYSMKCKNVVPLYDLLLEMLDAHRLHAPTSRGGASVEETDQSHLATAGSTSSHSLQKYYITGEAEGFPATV
# UniProt Q92731, whole entry: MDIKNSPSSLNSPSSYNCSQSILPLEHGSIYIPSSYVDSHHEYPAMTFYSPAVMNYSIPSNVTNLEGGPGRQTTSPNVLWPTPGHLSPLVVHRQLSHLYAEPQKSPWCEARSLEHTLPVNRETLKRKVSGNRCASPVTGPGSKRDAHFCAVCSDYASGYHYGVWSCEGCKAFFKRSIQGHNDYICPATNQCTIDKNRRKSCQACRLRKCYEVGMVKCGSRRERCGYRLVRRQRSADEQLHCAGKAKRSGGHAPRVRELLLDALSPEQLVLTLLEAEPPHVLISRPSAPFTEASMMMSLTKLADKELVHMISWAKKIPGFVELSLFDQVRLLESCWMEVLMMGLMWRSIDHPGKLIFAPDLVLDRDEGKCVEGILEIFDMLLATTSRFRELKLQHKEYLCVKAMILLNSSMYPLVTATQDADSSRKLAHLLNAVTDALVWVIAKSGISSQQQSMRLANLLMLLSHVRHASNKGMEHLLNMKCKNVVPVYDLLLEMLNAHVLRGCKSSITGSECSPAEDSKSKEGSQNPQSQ
# [1] = biological target: Estrogen receptor (Homo sapiens, UniProt P03372); assay: Displacement of [3H]-estradiol from full length human ERalpha expressed in insect cells after 18 to 24 hrs by radiometric method relative to estradiol
# [2] = species: Homo sapiens; assay: Selectivity ratio of IC50 for full length human ERalpha expressed in insect cells to IC50 for full length human ERbeta expressed in insect cells
# [3] = biological target: Estrogen receptor beta (Homo sapiens, UniProt Q92731); assay: Displacement of [3H]-estradiol from full length human ERbeta expressed in insect cells after 18 to 24 hrs by radiometric method relative to estradiol
relative binding affinity (RBA) [1],relative binding affinity (RBA) [3],SMILES,Ratio IC50 [2]
0.025,0.013,Cc1c(-c2ccc(O)cc2Cl)c(=O)oc2cc(O)ccc12,1.92
3.23,1.97,O=c1oc2cc(O)ccc2c(-c2ccc(O)c(F)c2)c1-c1ccc(O)c(F)c1,1.63
0.02,0.09,O=c1oc2cc(O)ccc2cc1-c1ccc(O)c(F)c1,0.22
0.158,0.102,CCc1c(-c2ccc(O)c(F)c2)c(=O)oc2cc(O)ccc12,1.54
1.93,0.817,CCc1c(-c2ccc(O)cc2Cl)c(=O)oc2cc(O)ccc12,2.36
0.064,0.017,Cc1cc(O)ccc1-c1c(C)c2ccc(O)cc2oc1=O,3.76
0.025,0.08,O=c1oc2cc(O)ccc2cc1-c1ccc(O)cc1,0.31

# Reference: ChEMBL document CHEMBL4033683, “Dual functional small molecule fluorescent probes for image-guided estrogen receptor-specific targeting coupled potent antiproliferative potency for breast cancer therapy” (Bioorg Med Chem, 2017)
